According to PMC3259267 (Bioorganic & medicinal chemistry, 2011):
Where two headings read alike, the source gives them in different places.

Test system: G93A SOD1 transgenic mouse model for ALS
Settings: untreated 126.4+/−4.2

SMILES: O=C1CC(=O)CC(c2cc(C(F)(F)F)cc(C(F)(F)F)c2)C1 [Compound 26]
- survival (Kaplan-Meier) (Group 1, 1 mg/kg ip once a day): 128.9+/−6.1
- survival (Kaplan-Meier) (Group 2, 10 mg/kg ip once a day): 130.5+/−5.8
- survival (Kaplan-Meier) (Group 3, 20 mg/kg ip once a day): 132.3+/−4.7
